Target: T1, Usp14/26S proteasome complexes (Homo sapiens, UniProt P54578)
T1 construct: GST (N, cleaved yes); made in house; host or cells: E. coli Rosetta 2 (DE3) for Usp14
Test: Ub-AMC hydrolysis by VS-proteasomes reconstituted with recombinant Usp14
Type: biochemical
Protocol: To test whether Usp14 is a potent inhibitor of human proteasomes, a purification procedure was developed to generate proteasomes that lack detectible levels of deubiquitinase Usp14 (modified from Wang et al., (2007), Biochemistry, 46, 3553-3565). Briefly, human proteasomes were affinity-purified on a large scale from a stable HEK293 cell line harboring HTBH-tagged hRpn11. The cells were Dounce-homogenized in lysis buffer (50 mM NaH2PO4 [pH 7.5], 100 mM NaCl, 10% glycerol, 5 mM MgCl2, 0.5% NP-40, 5 mM ATP, and 1 mM DTT) containing protease inhibitors. Lysates were cleared, then incubated with NeutrAvidin agarose resin (Thermo Scientific) overnight at 4° C. The beads were then washed with excess lysis buffer followed by the wash buffer (50 mM Tris-HCl [pH 7.5], 1 mM MgCl2 and 1 mM ATP). […]
Compounds were screened for Usp14/26S inhibition in 384-well low-volume plates in duplicate. […] Compounds over the cut-off of Z>5 were mostly autofluorescent and were therefore not counted. To exclude quenching compounds that only affect AMC fluorescence, 312 primary hits were tested for quenching of AMC amine, and pure quenchers were scored as false-positives and excluded from further analysis (FIG. 8B). Of the 63,052 compounds analyzed in the high-throughput screen, 215 were identified as true inhibitors of Usp14. […]

Chains of the proteins cited; added tags and fusions are not shown. Lines headed by an entry give the natural chain unless they say otherwise; changes in a name come on top.
UniProt P54578: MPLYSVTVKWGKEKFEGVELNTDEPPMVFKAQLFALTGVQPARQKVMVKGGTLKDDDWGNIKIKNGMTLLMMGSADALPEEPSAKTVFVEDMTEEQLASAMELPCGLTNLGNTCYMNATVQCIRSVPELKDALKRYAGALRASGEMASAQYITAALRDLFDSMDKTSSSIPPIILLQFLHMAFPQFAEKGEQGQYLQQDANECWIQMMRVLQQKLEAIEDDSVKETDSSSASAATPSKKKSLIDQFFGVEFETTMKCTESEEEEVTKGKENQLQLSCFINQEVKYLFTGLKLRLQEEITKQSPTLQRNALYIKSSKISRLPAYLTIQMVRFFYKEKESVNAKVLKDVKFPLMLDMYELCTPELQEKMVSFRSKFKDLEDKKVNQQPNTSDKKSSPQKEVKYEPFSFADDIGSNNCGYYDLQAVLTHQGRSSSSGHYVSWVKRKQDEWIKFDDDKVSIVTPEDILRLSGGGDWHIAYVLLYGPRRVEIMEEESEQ

**Q.** With `Cc1cc(C(=O)CN2CCCC2)c(C)n1-c1ccc(F)cc1` [IU1, 1-[1-(4-fluorophenyl)-2,5-dimethlypyrrol-3-yl]-2-pyrrolidin-1-ylethanone] as the compound, how does the IC50 read?
**A.** The IC50 was 2 to 5 µM.

— patent US10351568B2, “Compositions and methods for enhancing proteasome activity” (President and Fellows of Harvard College, priority 2010, dated 2019)
